Apparent affinities of Ab-14 variants for a coronavirus HR2 peptide

Values reported by Engelhart et al. 2022, doi:10.1038/s41597-022-01779-4 (FLAb copy).

All variants were tested on one target, the spike HR2 peptide PDVDLGDISGINAS (SARS-CoV-2).

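The library (AAYL50) carries one to three amino acid substitutions per variant, with no insertions or deletions. Affinity was read by AlphaSeq, a pooled yeast mating assay with surface-displayed partners. The frequency of each diploid, read from paired DNA barcodes, reflects how well the two displayed proteins bind. The ratio of observed to expected reads was calibrated, replicate by replicate, on BCL2-family standards whose Kd was known from biolayer interferometry. There are three technical replicates.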

Parent: Ab-14, a human scFv built as VH, a 15-residue (Gly4Ser)3 linker, VL. Only the CDRs of the light chain vary.
VH: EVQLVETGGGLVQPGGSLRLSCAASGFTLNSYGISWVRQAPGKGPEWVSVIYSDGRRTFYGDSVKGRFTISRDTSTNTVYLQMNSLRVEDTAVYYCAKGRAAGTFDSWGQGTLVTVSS
VL: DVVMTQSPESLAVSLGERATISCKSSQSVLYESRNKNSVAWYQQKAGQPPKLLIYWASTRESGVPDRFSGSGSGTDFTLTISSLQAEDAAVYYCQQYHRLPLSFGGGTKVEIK

Substitutions are numbered in sequence along the VL above, starting at 1 (not Kabat).
Every variant below is changed at L102 of the VL (sequential numbering).
The Kd shown is the geometric mean over detected replicates; a lower Kd is a better binder.
An entry "not detected" has no value in the source: the pair was not observed among the diploids in any replicate. This suggests poor binding but is not conclusive.
Three control strains display no target. For library AAYL50, 18% of the pairings with them gave a signal, with a median of 15 µM and one signal in twenty below 970 nM, so weak values seen in few replicates may be background.

changes,apparent Kd,seen in
Q95W+L102C,250 nM,1 of 3
S26I+Q27R+L102Q,300 nM,3 of 3
R34T+H98M+L102F,15 nM,3 of 3
R34F+S38C+L102Y,not detected,0 of 3
S28D+L102I,8.4 nM,3 of 3
K36V+E61Q+L102Y,not detected,0 of 3
Y31N+N35T+L102C,21 nM,3 of 3
T59V+S62N+L102G,6.6 nM,3 of 3
L30F+L100E+L102Q,2.2 µM,1 of 3
S28F+R34I+L102R,1.6 µM,3 of 3
S26L+R34V+L102T,not detected,0 of 3
W56P+T59I+L102C,17 µM,3 of 3
S26T+S62V+L102G,10 µM,1 of 3
Y97G+L102E,1.1 mM,1 of 3
K24N+L102Q,720 nM,3 of 3
E61P+L100V+L102K,not detected,0 of 3
K24V+E32D+L102F,not detected,0 of 3
S62W+R99N+L102V,not detected,0 of 3
Q27M+E32S+L102Y,770 nM,1 of 3
A40F+Q95S+L102I,not detected,0 of 3
L102S,26 nM,3 of 3
Q27G+K36V+L102K,not detected,0 of 3
R34T+R99Q+L102E,6.7 nM,3 of 3
S26K+P101R+L102V,19 nM,3 of 3
E32T+A57F+L102P,1.8 µM,1 of 3
T59D+L100C+L102T,80 nM,3 of 3
R34I+H98K+L102S,5.6 nM,3 of 3
S38M+L102W,not detected,0 of 3
Q96E+L100R+L102I,6.0 nM,3 of 3
Y31L+R60A+L102D,110 nM,3 of 3
W56M+R99N+L102V,660 nM,2 of 3
K24R+S58T+L102Q,7.1 nM,3 of 3
T59K+Y97I+L102T,8.4 nM,3 of 3
E61Q+L100D+L102A,not detected,0 of 3
L30G+T59F+L102M,810 nM,3 of 3
A57F+L102A,720 nM,1 of 3
K24I+L102I,32 nM,3 of 3
L102F,31 nM,3 of 3
V29D+H98V+L102Y,130 nM,3 of 3
N35S+S62D+L102P,3.4 µM,1 of 3
S25I+H98Y+L102G,not detected,0 of 3
K24C+H98A+L102G,not detected,0 of 3
N35M+Q96V+L102I,26 nM,3 of 3
Q27T+A57F+L102A,not detected,0 of 3
V39S+L102I,35 µM,1 of 3
E32G+R60M+L102E,not detected,0 of 3
N37S+S38F+L102E,not detected,0 of 3
P101L+L102H,200 nM,3 of 3
L30H+L100F+L102C,3.7 µM,1 of 3
S26I+E61I+L102N,410 nM,1 of 3
N35G+P101K+L102W,30 nM,3 of 3
E32V+E61L+L102M,not detected,0 of 3
S33Y+Y97H+L102P,76 µM,1 of 3
K24D+W56V+L102N,200 µM,1 of 3
N35W+W56N+L102D,52 µM,3 of 3
A40R+L102C,not detected,0 of 3
S26Q+A57F+L102K,100 µM,2 of 3
Q96P+L102A,140 nM,3 of 3
N37W+R99L+L102V,not detected,0 of 3
V39C+A57L+L102N,not detected,0 of 3
K36V+L100I+L102C,140 nM,3 of 3
K24D+S26I+L102H,20 µM,3 of 3
R99P+L102T,5.0 nM,3 of 3
K36A+P101T+L102W,41 µM,1 of 3
S28G+W56H+L102H,640 nM,1 of 3
S33R+N37A+L102N,120 µM,1 of 3
V39Y+Y97A+L102W,110 µM,1 of 3
V29Q+Q96M+L102M,13 µM,2 of 3
S25P+Q95K+L102S,16 µM,1 of 3
L30Q+N35P+L102K,2.1 µM,2 of 3
Q95M+L102H,28 µM,1 of 3
A57F+L102D,300 µM,3 of 3
S38H+L102H,not detected,0 of 3
A57S+E61K+L102D,not detected,0 of 3
S33A+T59N+L102R,not detected,0 of 3
S25K+S33G+L102N,not detected,0 of 3
A40V+A57S+L102R,not detected,0 of 3
Y97T+R99I+L102Y,150 µM,1 of 3
R34F+Y97D+L102I,35 µM,1 of 3

Extract of 8 entries:

changes,apparent Kd,seen in
V29Q+Q96M+L102M,13 µM,2 of 3
S28D+L102I,8.4 nM,3 of 3
S26K+P101R+L102V,19 nM,3 of 3
K36A+P101T+L102W,41 µM,1 of 3
A57F+L102D,300 µM,3 of 3
S33R+N37A+L102N,120 µM,1 of 3
S38H+L102H,not detected,0 of 3
K24I+L102I,32 nM,3 of 3